{
  "source": "patent EP0324212A1",
  "about": "“Glucuronic acid derivatives of opioid antagonists” (BAKER NORTON PHARMACEUTICALS, INC., priority 1988, dated 1989)",
  "key": {"[1]": {"assay": "Analysis of blood, urine and feces of rats treated with nalmefene orally", "assay_type": "in vivo", "description": "Thus nalmefene is almost totally biotransformed as a result of \"first-pass\" metabolism when administered orally. Such a high degree of biotransformation is common for this type of drug. However it was discovered that the relative concentrations of free nalmefene and nalmefene glucuronide in the feces of these animals were in marked contrast to the blood and urine. Whereas the ratio of nalmefene to nalmefene glucuronide in the blood and urine was about 1:100, in the feces the ratio was about 3:1."}, "[2]": {"system": "opioid-dependant animals", "assay": "Rapid Quantitative In Vivo Assay for Narcotic Antagonist of Katovich et al. (skin tail temperature rise as a CNS withdrawal sign)", "conditions": "Figure 1; doses as low as 10µg/kg", "description": "The Rapid Quantitative In Vivo Assay for Narcotic Antagonist of Katovich et al. (Substance and Alcohol Actions/Misuse, vol 5: 87095, 1984) was used. This assay is based on the extreme sensitivity of opioid-dependant animals to narcotic antagonists. Injection of these animals with a narcotic antagonist produces severe central nervous system withdrawal signs. One of these signs is an abrupt rise in the skin temperature of the tail."}},
  "note": "Structures can show the parent of a compound that is named as a salt.",
  "data": [
    {"smiles": "C=C1CC[C@@]2(O)[C@H]3Cc4ccc(O)c5c4[C@@]2(CCN3CC2CC2)[C@H]1O5", "note": "[Nalmefene HCl, 6-methylene-6-desoxy-N-cyclopropylmethyl-14-hydroxydihydronormorphine]", "values": [
      {"measurement": "concentration of nalmefene glucuronide relative to concentration of free nalmefene", "setting": "[1]", "result": "about 100 fold"},
      {"measurement": "rise in skin tail temperature", "setting": "[2]", "result": "marked rise"}
    ]}
  ]
}
